The record followed here is publication PMC4304654 (Bioorganic & medicinal chemistry, 2012).

SMILES strings stand for the structures.

This series in a line: Unbound fraction in plasma by rapid equilibrium dialysis. The class given is in vitro ADME. Particulars: mouse, pH 7.4. Background: In equilibrium dialysis only unbound substance equilibrates across the membrane.

For the molecule `Nc1scc2c(C(=O)NC3CC3)nn(-c3ccc(F)cc3)c(=O)c12` [Compound 43, 5-Amino-N-cyclopropyl-3-(4-fluorophenyl)-4-oxo-3,4-dihydrothieno[3,4-d]pyridazine-1-carboxamide], the fraction unbound (in general, free concentration divided by total concentration) at 5 h, 1 μM amounted to 0.069 ± 0.004.
